Molecular target: isolated polymerase domain (I1780-V2590) of DNA polymerase theta (Polθ) (Homo sapiens (Human), UniProt O75417)
Assay: biochemical

The chains behind the UniProt entries cited, without tags or fusion partners. Residues count along the entry.
UniProt O75417, 1780-2590: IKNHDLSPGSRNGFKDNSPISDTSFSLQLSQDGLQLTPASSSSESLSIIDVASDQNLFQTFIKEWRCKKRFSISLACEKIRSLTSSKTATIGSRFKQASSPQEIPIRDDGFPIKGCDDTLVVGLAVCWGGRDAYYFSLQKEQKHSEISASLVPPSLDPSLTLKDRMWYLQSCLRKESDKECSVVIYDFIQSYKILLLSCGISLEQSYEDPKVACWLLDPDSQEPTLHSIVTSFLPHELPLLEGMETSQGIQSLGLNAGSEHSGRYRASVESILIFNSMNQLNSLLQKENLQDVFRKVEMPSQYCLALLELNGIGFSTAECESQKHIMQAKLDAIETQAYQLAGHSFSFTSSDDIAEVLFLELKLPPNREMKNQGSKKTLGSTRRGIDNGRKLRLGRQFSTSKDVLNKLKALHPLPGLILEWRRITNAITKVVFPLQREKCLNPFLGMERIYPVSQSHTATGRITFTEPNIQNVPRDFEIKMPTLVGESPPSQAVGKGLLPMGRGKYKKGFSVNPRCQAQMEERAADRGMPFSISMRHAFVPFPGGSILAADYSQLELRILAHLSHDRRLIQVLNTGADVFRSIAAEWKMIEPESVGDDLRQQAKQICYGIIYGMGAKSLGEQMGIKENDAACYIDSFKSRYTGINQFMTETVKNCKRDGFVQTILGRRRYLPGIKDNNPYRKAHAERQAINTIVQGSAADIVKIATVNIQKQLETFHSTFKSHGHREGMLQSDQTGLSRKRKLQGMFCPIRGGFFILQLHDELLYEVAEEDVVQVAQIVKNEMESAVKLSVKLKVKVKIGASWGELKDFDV

## COc1ccc(Cl)cc1Cn1c(-c2cccc(CCC(=O)O)c2Cl)nc2c(OC3(C)CC3)ncnc21 [Example U64, 3-(2-chloro-3-(9-(5-chloro-2-methoxybenzyl)-6-(1-methylcyclopropoxy)-9H-purin-8-yl)phenyl)propanoic acid]
  IC50: 5.01 nM

## Cc1ccnc(Cn2c(-c3ccc(NC(=O)NCCO)cc3Cl)nc3c(OC4(C)CC4)ncnc32)c1 [Example T132, 1-(3-chloro-4-(6-(1-methylcyclopropoxy)-9-((4-methylpyridin-2-yl)methyl)-9H-purin-8-yl)phenyl)-3-(2-hydroxyethyl)urea]
  IC50: 5.01 nM

## Cc1ccnc(Cn2c(-c3ccc(C4CCNC4=O)cc3Cl)nc3c(OC4(C)CC4)ncnc32)c1 (racemic) [Example T176, 3-(3-chloro-4-(6-(1-methylcyclopropoxy)-9-((4-methylpyridin-2-yl)methyl)-9H-purin-8-yl)phenyl)pyrrolidin-2-one]
  IC50: 12.6 nM

## CC(CCOc1ccc(-c2nc3c(OC4(C)CC4)ncnc3n2Cc2cc(Cl)ccc2OC(F)F)c(Cl)c1)C(=O)O (racemic) [Example U60, 4-(3-chloro-4-(9-(5-chloro-2-(difluoromethoxy)benzyl)-6-(1-methylcyclopropoxy)-9H-purin-8-yl)phenoxy)-2-methylbutanoic acid]
  IC50: 10 nM

## Cc1ccnc(Cn2c(-c3ccc(C(=O)O)cc3Cl)nc3c(OC4(C)CC4)ncnc32)c1 [Example T13, 3-chloro-4-(6-(1-methylcyclopropoxy)-9-((4-methylpyridin-2-yl)methyl)-9H-purin-8-yl)benzoic acid]
  IC50: 6.31 nM

## CCNC(=O)COc1ccc(-c2nc3c(OC4(C)CC4)ncnc3n2Cc2cc(C)ccn2)c(Cl)c1 [Example T221, 2-(3-chloro-4-(6-(1-methylcyclopropoxy)-9-((4-methylpyridin-2-yl)methyl)-9H-purin-8-yl)phenoxy)-N-ethylacetamide]
  IC50: 7.94 nM

## CC1(Oc2ncnc3c2nc(-c2cccc(OCC(F)(F)CC(=O)O)c2Cl)n3Cc2cccc(Cl)c2)CC1 [Example U63, 4-(2-chloro-3-(9-(3-chlorobenzyl)-6-(1-methylcyclopropoxy)-9H-purin-8-yl)phenoxy)-3,3-difluorobutanoic acid]
  IC50: 3.16 nM

## Cc1ccnc(Cn2c(-c3ccc(CC(=O)N4CCCNCC4)cc3Cl)nc3c(OC4(C)CC4)ncnc32)c1 [Example T589, 2-(3-chloro-4-(6-(1-methylcyclopropoxy)-9-((4-methylpyridin-2-yl)methyl)-9H-purin-8-yl)phenyl)-1-(1,4-diazepan-1-yl)ethan-1-one]
  IC50: 3.98 nM

## CC1(Oc2ncnc3c2nc(-c2cccc(OCC(=O)O)c2Cl)n3Cc2cccc(Cl)c2)CC1 [Example T41, 2-(2-chloro-3-(9-(3-chlorobenzyl)-6-(1-methylcyclopropoxy)-9H-purin-8-yl)phenoxy)acetic acid]
  IC50: 6.31 nM

## Cc1ccnc(Cn2c(-c3ccc(CCNC(=O)CO)cc3Cl)nc3c(OC4(C)CC4)ncnc32)c1 [Example T223, N-(3-chloro-4-(6-(1-methylcyclopropoxy)-9-((4-methylpyridin-2-yl)methyl)-9H-purin-8-yl)phenethyl)-2-hydroxyacetamide]
  IC50: 6.31 nM

## Cc1cnc(Cn2c(-c3ccc(O[C@H]4CCNC4)cc3Cl)nc3c(OC4(C)CC4)ncnc32)s1 [Example T70, (S)-2-((8-(2-chloro-4-(pyrrolidin-3-yloxy)phenyl)-6-(1-methylcyclopropoxy)-9H-purin-9-yl)methyl)-5-methylthiazole]
  IC50: 6.31 nM

## COc1ccc(Cl)c(F)c1Cn1c(-c2ccc(OCCC(C)C(=O)O)cc2Cl)nc2c(OC3(C)CC3)ncnc21 (racemic) [Example U57, 4-(3-chloro-4-(9-(3-chloro-2-fluoro-6-methoxybenzyl)-6-(1-methylcyclopropoxy)-9H-purin-8-yl)phenoxy)-2-methylbutanoic acid]
  IC50: 3.16 nM

## CC1(Oc2ncnc3c2nc(-c2ccc(OCCC(=O)O)cc2Cl)n3Cc2cccc(C(F)(F)F)c2)CC1 [Example T151, 3-(3-chloro-4-(6-(1-methylcyclopropoxy)-9-(3-(trifluoromethyl)benzyl)-9H-purin-8-yl)phenoxy)propanoic acid]
  IC50: 7.94 nM

## CC1(Oc2ncnc3c2nc(-c2cccc(OCCC(C)(C)C(=O)O)c2Cl)n3Cc2cccc(Cl)c2)CC1 [Example T442, 4-(2-chloro-3-(9-(3-chlorobenzyl)-6-(1-methylcyclopropoxy)-9H-purin-8-yl)phenoxy)-2,2-dimethylbutanoic acid]
  IC50: 3.16 nM

## Cc1ccnc(Cn2c(-c3ccc(O[C@@H]4CNC(=O)C4)cc3Cl)nc3c(OC4(C)CC4)ncnc32)c1 [Example T184, (S)-4-(3-chloro-4-(6-(1-methylcyclopropoxy)-9-((4-methylpyridin-2-yl)methyl)-9H-purin-8-yl)phenoxy)pyrrolidin-2-one]
  IC50: 3.16 nM

## Cc1ccnc(Cn2c(-c3ccc(C(=O)NCCCF)cc3Cl)nc3c(OC4(C)CC4)ncnc32)c1 [Example T191, 3-chloro-N-(3-fluoropropyl)-4-(6-(1-methylcyclopropoxy)-9-((4-methylpyridin-2-yl)methyl)-9H-purin-8-yl)benzamide]
  IC50: 12.6 nM

## COc1ccc(C(F)(F)F)cc1Cn1c(-c2ccc(OCC[C@@H](C)C(=O)O)cc2Cl)nc2c(OC3(C)CC3)ncnc21 [Example U79, (R)-4-(3-chloro-4-(9-(2-methoxy-5-(trifluoromethyl)benzyl)-6-(1-methylcyclopropoxy)-9H-purin-8-yl)phenoxy)-2-methylbutanoic acid]
  IC50: 3.98 nM

## Cc1cnc(Cn2c(-c3cccc(OCCN4CC(O)C4)c3Cl)nc3c(OC4(C)CC4)ncnc32)s1 [Example T142, 1-(2-(2-chloro-3-(6-(1-methylcyclopropoxy)-9-((5-methylthiazol-2-yl)methyl)-9H-purin-8-yl)phenoxy)ethyl)azetidin-3-ol]
  IC50: 15.8 nM

## Cc1ccnc(Cn2c(-c3ccc(OC[C@H]4CCO4)cc3Cl)nc3c(OC4(C)CC4)ncnc32)c1 [Example T194, (R)-8-(2-chloro-4-(oxetan-2-ylmethoxy)phenyl)-6-(1-methylcyclopropoxy)-9-((4-methylpyridin-2-yl)methyl)-9H-purine]
  IC50: 7.94 nM

## CC1(Oc2ncnc3c2nc(-c2cccc(C(=O)O)c2Cl)n3Cc2cccc(Cl)c2)CC1 [Example T12, 2-chloro-3-(9-(3-chlorobenzyl)-6-(1-methylcyclopropoxy)-9H-purin-8-yl)benzoic acid]
  IC50: 10 nM

## Cc1ccnc(Cn2c(-c3ccc(C4CNC(=O)C4)cc3Cl)nc3c(OC4(C)CC4)ncnc32)c1 (single isomer, unassigned) [Example T175, 4-(3-chloro-4-(6-(1-methylcyclopropoxy)-9-((4-methylpyridin-2-yl)methyl)-9H-purin-8-yl)phenyl)pyrrolidin-2-one]
  IC50: 7.94 nM

## C[C@@H](COc1cccc(-c2nc3c(OC4(C)CC4)ncnc3n2Cc2cccc(Cl)c2)c1Cl)C(=O)O [Example T160, (S)-3-(2-chloro-3-(9-(3-chlorobenzyl)-6-(1-methylcyclopropoxy)-9H-purin-8-yl)phenoxy)-2-methylpropanoic acid]
  IC50: 6.31 nM

## Cc1ccnc(Cn2c(-c3ccc(C(=O)NCCCO)cc3Cl)nc3c(OC4(C)CC4)ncnc32)c1 [Example T217, 3-chloro-N-(3-hydroxypropyl)-4-(6-(1-methylcyclopropoxy)-9-((4-methylpyridin-2-yl)methyl)-9H-purin-8-yl)benzamide]
  IC50: 15.8 nM

## Cc1ccnc(Cn2c(-c3ccc(OCC(=O)N4CC(F)C4)cc3Cl)nc3c(OC4(C)CC4)ncnc32)c1 [Example T283, 2-(3-chloro-4-(6-(1-methylcyclopropoxy)-9-((4-methylpyridin-2-yl)methyl)-9H-purin-8-yl)phenoxy)-1-(3-fluoroazetidin-1-yl)ethan-1-one]
  IC50: 5.01 nM

## CC1(Oc2ncnc3c2nc(-c2ccc(OCCCO)cc2Cl)n3Cc2cc(Cl)ccn2)CC1 [Example T64, 3-(3-chloro-4-(9-((4-chloropyridin-2-yl)methyl)-6-(1-methylcyclopropoxy)-9H-purin-8-yl)phenoxy)propan-1-ol]
  IC50: 6.31 nM

## Cc1ccnc(Cn2c(-c3ccc(OCCN4CC[C@@H](O)C4=O)cc3Cl)nc3c(OC4(C)CC4)ncnc32)c1 [Example T474, (R)-1-(2-(3-chloro-4-(6-(1-methylcyclopropoxy)-9-((4-methylpyridin-2-yl)methyl)-9H-purin-8-yl)phenoxy)ethyl)-3-hydroxypyrrolidin-2-one]
  IC50: 7.94 nM

## CNC(=O)COc1ccc(-c2nc3c(OC4(C)CC4)ncnc3n2Cc2cncs2)c(Cl)c1 [Example T8, 2-(3-chloro-4-(6-(1-methylcyclopropoxy)-9-(thiazol-5-ylmethyl)-9H-purin-8-yl)phenoxy)-N-methylacetamide]
  IC50: 79.4 nM

## Cc1ccnc(Cn2c(-c3ccc(N4CCN5CCC4C5)cc3Cl)nc3c(OC4(C)CC4)ncnc32)c1 (racemic) [Example T493, 8-(4-(1,4-diazabicyclo[3.2.1]octan-4-yl)-2-chlorophenyl)-6-(1-methylcyclopropoxy)-9-((4-methylpyridin-2-yl)methyl)-9H-purine]
  IC50: 5.01 nM

## Cc1ccnc(Cn2c(-c3ccc(OCCCN4CCCC4)cc3Cl)nc3c(OC4(C)CC4)ncnc32)c1 [Example T590, 8-(2-chloro-4-(3-(pyrrolidin-1-yl)propoxy)phenyl)-6-(1-methylcyclopropoxy)-9-((4-methylpyridin-2-yl)methyl)-9H-purine]
  IC50: 7.94 nM

## COc1ccc(C)cc1Cn1c(-c2ccc(OCC[C@H](C)C(=O)O)cc2Cl)nc2c(OC3(C)CC3)ncnc21 [Example U94, (S)-4-(3-chloro-4-(9-(2-methoxy-5-methylbenzyl)-6-(1-methylcyclopropoxy)-9H-purin-8-yl)phenoxy)-2-methylbutanoic acid]
  IC50: 5.01 nM

## Cc1ccnc(Cn2c(-c3ccc(CC(=O)N4CC[C@@H](O)C4)cc3Cl)nc3c(OC4(C)CC4)ncnc32)c1 [Example T458, (R)-2-(3-chloro-4-(6-(1-methylcyclopropoxy)-9-((4-methylpyridin-2-yl)methyl)-9H-purin-8-yl)phenyl)-1-(3-hydroxypyrrolidin-1-yl)ethan-1-one]
  IC50: 10 nM

## Cc1ccnc(Cn2c(-c3ccc(CC(=O)NCC(F)F)cc3Cl)nc3c(OC4(C)CC4)ncnc32)c1 [Example T165, 2-(3-chloro-4-(6-(1-methylcyclopropoxy)-9-((4-methylpyridin-2-yl)methyl)-9H-purin-8-yl)phenyl)-N-(2,2-difluoroethyl)acetamide]
  IC50: 5.01 nM
